Data as given in patent publication US20190240291A1.

By UniProt entry, the sequences of proteins in these tests, tags left out. Residues count along the entry.
UniProt Q08351, 26-625: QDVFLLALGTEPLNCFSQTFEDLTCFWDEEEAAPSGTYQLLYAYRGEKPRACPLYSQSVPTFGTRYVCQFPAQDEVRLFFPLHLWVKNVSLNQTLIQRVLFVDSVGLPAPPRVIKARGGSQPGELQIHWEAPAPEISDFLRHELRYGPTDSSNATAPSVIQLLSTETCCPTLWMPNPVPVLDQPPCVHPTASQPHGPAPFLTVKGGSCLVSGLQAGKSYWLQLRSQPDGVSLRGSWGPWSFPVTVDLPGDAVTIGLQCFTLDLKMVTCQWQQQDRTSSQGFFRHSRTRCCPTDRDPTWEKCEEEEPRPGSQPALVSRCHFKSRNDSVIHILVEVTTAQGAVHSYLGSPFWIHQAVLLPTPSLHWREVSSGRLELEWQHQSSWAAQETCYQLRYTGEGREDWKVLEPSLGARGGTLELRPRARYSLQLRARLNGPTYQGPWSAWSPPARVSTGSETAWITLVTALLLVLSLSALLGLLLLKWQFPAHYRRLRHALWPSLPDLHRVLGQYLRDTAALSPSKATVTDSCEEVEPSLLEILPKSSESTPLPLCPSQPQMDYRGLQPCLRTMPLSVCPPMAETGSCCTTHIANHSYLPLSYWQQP

Target: TPO receptor, c-mpl (mouse (C57BL/6 cells)) (UniProt Q08351)
Assay: cell-based or functional assay

- formation of mature OCs in vitro: < 5 fold
Substance: thrombopoietin (TPO) (ligand)
